Only a part is listed here, and it is no random draw. Active and inactive are the calls of the source.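 The calls were made as follows: active = inhibition above the campaign mean plus 3 SD, with each screening campaign given its own cutoff (cut at about 60% in these data); inactive = the rest.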
What follows are molecules tested against Nuclear receptor coactivator 1 (Homo sapiens) (UniProt Q15788) (assay: NCOA1 GAL4-fusion reporter inhibition – cell-based, luminescence, primary screen (AID 588354;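 also: 0% = DMSO treated cells and 100% = gossypol at 36 µM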)). Settings: HEK293 GAL4-SRC1 luciferase reporter, at 3.6 µM, active compounds read high.

Chains of the proteins cited; added tags and fusions are not shown.
UniProt Q15788, whole entry: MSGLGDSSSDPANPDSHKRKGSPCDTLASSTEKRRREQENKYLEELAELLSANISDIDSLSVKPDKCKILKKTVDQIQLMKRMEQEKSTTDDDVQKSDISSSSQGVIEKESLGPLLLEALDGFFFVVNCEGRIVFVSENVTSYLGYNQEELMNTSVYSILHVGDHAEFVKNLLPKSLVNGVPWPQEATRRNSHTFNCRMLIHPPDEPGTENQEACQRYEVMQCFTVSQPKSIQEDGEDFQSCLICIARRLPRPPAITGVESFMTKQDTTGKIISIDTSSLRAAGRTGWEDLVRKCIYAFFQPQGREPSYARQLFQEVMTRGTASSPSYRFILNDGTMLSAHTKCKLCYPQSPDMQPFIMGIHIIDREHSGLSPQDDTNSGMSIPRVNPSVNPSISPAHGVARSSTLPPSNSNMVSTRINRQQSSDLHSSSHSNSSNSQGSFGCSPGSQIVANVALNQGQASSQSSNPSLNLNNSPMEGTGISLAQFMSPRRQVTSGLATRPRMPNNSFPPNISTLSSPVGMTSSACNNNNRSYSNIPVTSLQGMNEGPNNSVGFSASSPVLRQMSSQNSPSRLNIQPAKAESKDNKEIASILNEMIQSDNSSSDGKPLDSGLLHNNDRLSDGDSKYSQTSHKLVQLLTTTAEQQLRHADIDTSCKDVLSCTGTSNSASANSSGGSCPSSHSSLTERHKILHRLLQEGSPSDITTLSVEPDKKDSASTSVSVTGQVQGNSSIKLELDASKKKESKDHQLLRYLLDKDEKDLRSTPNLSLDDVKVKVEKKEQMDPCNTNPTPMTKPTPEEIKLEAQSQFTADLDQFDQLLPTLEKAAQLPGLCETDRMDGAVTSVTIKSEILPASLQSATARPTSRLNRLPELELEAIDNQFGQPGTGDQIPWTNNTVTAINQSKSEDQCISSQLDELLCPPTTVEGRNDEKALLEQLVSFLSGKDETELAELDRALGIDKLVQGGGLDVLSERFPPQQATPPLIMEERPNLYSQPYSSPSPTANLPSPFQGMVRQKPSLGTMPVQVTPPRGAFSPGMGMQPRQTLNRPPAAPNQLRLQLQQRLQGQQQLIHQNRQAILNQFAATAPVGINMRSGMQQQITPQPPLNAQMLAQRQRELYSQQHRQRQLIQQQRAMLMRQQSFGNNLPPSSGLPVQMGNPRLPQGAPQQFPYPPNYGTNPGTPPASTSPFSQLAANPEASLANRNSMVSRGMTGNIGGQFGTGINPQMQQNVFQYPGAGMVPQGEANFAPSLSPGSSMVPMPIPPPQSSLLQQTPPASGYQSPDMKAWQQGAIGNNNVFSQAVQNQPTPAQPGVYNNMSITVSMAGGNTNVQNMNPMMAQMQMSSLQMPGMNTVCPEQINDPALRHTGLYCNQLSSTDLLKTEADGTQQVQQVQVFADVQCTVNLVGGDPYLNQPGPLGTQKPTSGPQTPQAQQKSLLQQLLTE

Structure (SMILES) | inhibition
CP(=O)(Nc1cccc(Br)c1)Oc1ccccc1 (stereo unspecified) | inactive: 2.94%

From PubChem BioAssay AID588354 (The Scripps Research Institute Molecular Screening Center, 2011)
